Key:
MDA-MB-468 cells = assay: In vitro cytotoxicity (CellTiter-Glo, 7 days), MDA-MB-468; format: cell-based, human; conditions: MDA-MB-468, HER2−
Experimental: Human HER2-positive cell lines (BT-474, HCC1954, and NCI-N87) and HER2-negative cell lines (MCF-7 and MDA-MB-468) were purchased from the ATCC. Tumor cells were cultured in Roswell Park Memorial Institute (RPMI)-1640 medium (Cellgro, Manassas, VA, USA) supplemented with 10% fetal bovine serum (Invitrogen, Carlsbad, CA, USA) and GlutaMAX (Invitrogen, Carlsbad, CA, USA). Cells (3.3 × 10^4 cells/well) were added to each well of 384-well plates and incubated at 37 °C overnight, after which 10 μL of compound aliquots were added to the assay plate. […] Then, the plates were removed from the incubator and equilibrated at room temperature for 10 min. The Cell Titer Glo® (CTG, Promega, Madison, WI, USA) reagents were incubated at 37 °C before the experiment. The buffer was equilibrated to room temperature and used to dissolve the substrate. Then, 40 μL of CTG reagent was added to each well for detection (at 1:1 ratio to the culture medium).

BT-474 cells [1] = assay: In vitro cytotoxicity (CellTiter-Glo, 7 days), BT-474; format: cell-based, human; conditions: BT-474, HER2+++, 7 days
Experimental: (§1) Human HER2-positive cell lines (BT-474, HCC1954, and NCI-N87) and HER2-negative cell lines (MCF-7 and MDA-MB-468) were purchased from the ATCC. Tumor cells were cultured in Roswell Park Memorial Institute (RPMI)-1640 medium (Cellgro, Manassas, VA, USA) supplemented with 10% fetal bovine serum (Invitrogen, Carlsbad, CA, USA) and GlutaMAX (Invitrogen, Carlsbad, CA, USA). Cells (3.3 × 10^4 cells/well) were added to each well of 384-well plates and incubated at 37 °C overnight, after which 10 μL of compound aliquots were added to the assay plate. The plate was incubated for 7 days at 37 °C, 5% CO2, and 95% humidity. Then, the plates were removed from the incubator and equilibrated at room temperature for 10 min. The Cell Titer Glo® (CTG, Promega, Madison, WI, USA) reagents were incubated at 37 °C before the experiment. The buffer was equilibrated to room temperature and used to dissolve the substrate. Then, 40 μL of CTG reagent was added to each well for detection (at 1:1 ratio to the culture medium). Luminescence was detected using an EnSpire plate reader, and Prism5 for Windows (GraphPad software, Inc., La Jolla, CA, USA) was used for data analysis, including the 50% inhibition concentration (IC50) calculations.

HCC1954 cells = assay: In vitro cytotoxicity (CellTiter-Glo, 7 days), HCC1954; format: cell-based, human; conditions: HCC1954, HER2+++
Experimental: as §1

MCF-7 cells = assay: In vitro cytotoxicity (CellTiter-Glo, 7 days), MCF-7; format: cell-based, human; conditions: MCF-7, HER2−
Experimental: as §1

NCI-N87 xenograft [2] = assay: NCI-N87 gastric cancer xenograft in BALB/c nude mice; format: in vivo; conditions: therapeutic doses
Experimental: Female BALB/c nude mice (6–8 weeks old; approximately 22 g) were purchased from Beijing Ankaiyibo Biological Technology Co. Ltd. (Beijing, China), and were acclimated for 1 week before the experiment. The mice were inoculated subcutaneously with approximately 5 × 10^6 NCI-N87 gastric cancer cells in 0.2 mL of serum-free RPMI-1640 medium for tumor development. When the tumors reached a volume of ~120 mm^3, the mice were randomly divided into treatment and vehicle control groups (n = 6/group). […] The tumor volumes were monitored 2–3 times per week during the treatment period, and were calculated using the formula: TV = a × b^2/2, where “a” and “b” are the long and short diameters of each tumor, respectively. All animal studies were performed according to the guidelines approved by the Institutional Animal Care and Use Committee (IACUC) of Pharmaron Co., Ltd. following the guidance of the Association for Assessment and Accreditation of Laboratory Animal Care (AAALAC) under license number ON-CELL-XEM-06012017 on 1 June 2017.

NCI-N87 xenograft [3] = assay: In vivo fluorescence imaging (DyLight 680 label) in NCI-N87 xenograft; design: species or system mice; conditions: 10 mg/kg i.v., DyLight 680-labeled
Experimental: We further quantified the total fluorescence value and maximum fluorescence intensity of the tumors in the test animals. […] In addition, one mouse in the ADC dose group was randomly selected for tissue dissection and imaging in vitro after 32 h of administration.
The in vivo fluorescence imaging experiments were investigated using an NCI-N87 Balb/c-nude mice xenograft model. […] When the tumor size reached approximately ~400 mm^3, mice in the two groups were injected via the tail veins with the dose of 10 mg/kg, while an equal volume of vehicle was injected as a control. The mice were imaged under anesthesia at the indicated time points (6, 24, 48, 72, 120, 192, 288, and 360 h) using the IVIS® SpectrumTM imaging system (PE, Waltham, MA, USA), and the data were analyzed using Living Image® software (version number: 4.3.1, Waltham, MA, USA).

BT-474 cells [4] = assay: Confocal trafficking / internalization assay; format: cell-based, human; conditions: 37 °C for 16 h
Experimental: The Zenon™ pHrodo™ iFL red human IgG labeling reagent (Z25612), NucBlue™ Live ReadyProbes™ reagent (R37605), and CellLight™ Lysosomes-GFP, BacMam 2.0 (C10507) were purchased from Invitrogen (Carlsbad, CA, USA). BT-474 cells were seeded at a density of 2 × 10^4 cells/well in 24-well plates containing glass covers and lips and incubated at 37 °C overnight. […] After washing the wells with ice-cold phosphate buffered solution (PBS), the cells were exposed on the chamber coverslip by a Cytospin, fixed with 4% paraformaldehyde for 10 min, and permeabilized with 0.2% Triton X-100 for 5 min. […] The lysosomes were labeled with a lysosomal-associated membrane protein 1 (LAMP-1) antibody followed by an Alexa Fluor 568-labeled goat anti-mouse IgG (H + L). The cell nuclei were stained with 4′,6-diamidino-2-phenylindole (DAPI). Fluorescence images were obtained using a Nikon A1 confocal microscope (Nikon, Corp., Tokyo, Japan).

CCC(C)C(C(CC(=O)N1CCCC1C(OC)C(C)C(=O)NC(C)C(O)c1ccccc1)OC)N(C)C(=O)C(NC(=O)C(NC)C(C)C)C(C)C (centres unmarked) [MMAE, Monomethyl auristatin E, reference compound]
Max. Inhibition (MDA-MB-468 cells): 87.37%

mil40
IC50 (BT-474 cells [1]): 0.78 nM | Max. Inhibition (BT-474 cells [1]): 65.45% | IC50 (HCC1954 cells): 1750 nM | Max. Inhibition (HCC1954 cells): 70.36% | IC50 (MCF-7 cells): > 3440 nM | Max. Inhibition (MCF-7 cells): 49.43% | IC50 (MDA-MB-468 cells): 1390 nM | Body weight during treatment and observation period (NCI-N87 xenograft [2]): no significant weight loss | Time for which image of tumor localization was maintained (NCI-N87 xenograft [3]): more than 12 days | Internalization and lysosomal colocalization (BT-474 cells [4]): internalized into the tumor cells and colocalized with the lysosomal markers

From publication PMC7140114 (Cancers, 2020)
